{"sequences": {"note": "Amino acid sequences for entries named in this document (tags omitted). A change or cut given only in a name is not applied to a line headed by its entry.", "UniProt O14920": "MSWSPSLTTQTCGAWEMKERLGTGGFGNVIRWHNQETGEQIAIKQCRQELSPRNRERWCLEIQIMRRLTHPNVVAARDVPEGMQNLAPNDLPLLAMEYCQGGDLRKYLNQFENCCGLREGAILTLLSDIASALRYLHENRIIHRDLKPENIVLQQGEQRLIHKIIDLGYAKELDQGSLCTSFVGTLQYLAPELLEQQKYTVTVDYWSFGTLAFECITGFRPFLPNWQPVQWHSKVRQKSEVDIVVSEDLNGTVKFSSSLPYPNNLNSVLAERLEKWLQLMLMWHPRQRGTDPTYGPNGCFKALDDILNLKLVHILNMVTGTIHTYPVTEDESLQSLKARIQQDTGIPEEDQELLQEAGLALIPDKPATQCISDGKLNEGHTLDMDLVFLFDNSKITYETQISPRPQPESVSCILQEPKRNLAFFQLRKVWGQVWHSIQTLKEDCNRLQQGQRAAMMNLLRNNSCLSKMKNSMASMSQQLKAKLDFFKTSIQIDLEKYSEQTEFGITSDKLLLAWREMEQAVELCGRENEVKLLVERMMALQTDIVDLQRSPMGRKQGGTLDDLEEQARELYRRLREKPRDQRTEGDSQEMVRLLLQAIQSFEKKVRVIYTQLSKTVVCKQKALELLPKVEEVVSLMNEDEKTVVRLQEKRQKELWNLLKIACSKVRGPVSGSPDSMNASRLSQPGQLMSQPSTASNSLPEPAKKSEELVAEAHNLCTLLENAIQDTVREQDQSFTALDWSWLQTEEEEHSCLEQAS"}, "source": "patent US20090247520A1", "about": "“INHIBITORS OF ANTIGEN RECEPTOR-INDUCED NF-kappa B ACTIVATION” (The Burnham Institute for Medical Research, priority 2008, published 2009)", "molecular_target": "T1, IKK-beta (Homo sapiens, UniProt O14920)", "T1 construct": "purchased Cell Signaling, Danvers, Mass", "test": "In vitro kinase assay IKK-beta (HTScan kit)", "format": "biochemical", "conditions": "CID-2858522 up to 8 μM; STS 0.5 μM; IKK inhibitor 10 μM", "description": "CID-2858522 (8 μM) were tested in in vitro IKK beta (A), PKC beta […] or PKC theta (C) kinase assays using kits. STS (0.5 μM), IKK inhibitor (10 μM) and PKC inhibitor (1 μM) were used as positive controls.\nIn Vitro Kinase Assays. PKC-beta, PKC-theta and IKK-beta in vitro kinase assays were performed using the HTScan Kinase Assay Kit (Cell Signaling, Danvers, Mass.) according to manufacturer's protocols. A panel of >300 kinases was screened by Ambit, Inc."}
{"molecule": "CN[C@@H]1C[C@H]2O[C@@](C)([C@@H]1OC)n1c3ccccc3c3c4c(c5c6ccccc6n2c5c31)C(=O)NC4", "note": "[staurosporin]", "values": [{"measurement": "inhibition of IKK-beta kinase activity", "result": "potent inhibition"}]}
